Laboratory results published in ChEMBL document CHEMBL1255503, “Biochemical and biophysical characterization of unique switch pocket inhibitors of p38α” (Bioorg Med Chem Lett, 2010).

Chains of the proteins cited; added tags and fusions are not shown.
UniProt Q16539, whole entry: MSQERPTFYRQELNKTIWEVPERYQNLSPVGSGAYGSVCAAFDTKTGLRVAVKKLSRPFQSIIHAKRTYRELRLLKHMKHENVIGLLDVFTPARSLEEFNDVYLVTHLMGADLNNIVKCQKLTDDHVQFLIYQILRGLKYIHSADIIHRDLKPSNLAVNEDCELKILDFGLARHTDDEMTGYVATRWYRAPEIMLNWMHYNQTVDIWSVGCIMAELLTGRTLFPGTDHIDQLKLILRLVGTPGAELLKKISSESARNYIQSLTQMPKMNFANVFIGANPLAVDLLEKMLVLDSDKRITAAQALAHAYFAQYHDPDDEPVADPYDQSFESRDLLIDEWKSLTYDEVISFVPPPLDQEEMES

Target: Mitogen-activated protein kinase 14 (Homo sapiens, UniProt Q16539)

Compound | Ki
Cc1ccc(-n2nc(C(C)(C)C)cc2NC(=O)Nc2cccc3ccccc23)cc1C(=O)NCc1ccncc1 | 0.176 µM
CCN(CCOC)C(=O)c1cc(-n2nc(C(C)(C)C)cc2NC(=O)Nc2cccc3ccccc23)ccc1C | 1.39 µM
Cc1ccc(-n2nc(C(C)(C)C)cc2NC(=O)Nc2cccc3ccccc23)cc1C(=O)NCCc1c[nH]c2ccccc12 | 1.4 µM
Cc1ccc(-n2nc(C(C)(C)C)cc2NC(=O)Nc2cccc3ccccc23)cc1C(=O)NCCc1ccc(N)cc1 | 1.45 µM
